According to ChEMBL document CHEMBL4400531, “Structure-Based Design of N-(5-Phenylthiazol-2-yl)acrylamides as Novel and Potent Glutathione S-Transferase Omega 1 Inhibitors” (J Med Chem, 2019):

Experiment: Metabolic stability in mouse liver microsomes at 1 uM in presence of NADPH incubated for 45 mins by LC-MS/MS analysis
Type: ADME, Microsome
Details: read-out: Stability

`C=CC(=O)Nc1nc(-c2ccc(Cl)cc2)cs1` showed a remaining at 0.75 h, 1 µM of 5.36%.
